Measurements taken from patent US20210113687A1, “METHODS FOR TREATING INFLAMMATION” (NEW YORK UNIVERSITY, priority 2013, published 2021).

Target: UNC5b on mouse macrophages (mouse) (UniProt Q8K1S3)
Test: cell-based or functional assay

Substance | inhibition of migration of naive macrophages to CCL19 by conditioned medium of oxLDL-treated macrophages [%] | inhibition of MCP-1 induced migration of RAW264.7 macrophages (Boyden chamber) [%]
netrin-1 secreted by mouse macrophages (conditioned medium of oxLDL-, CoCl2-, HIF-1alpha- or palmitate-treated macrophages) (from UniProt O09118 25-604) (ligand) | 80 | 
recombinant netrin-1 (mouse or chicken from R&D Systems) (from UniProt O09118 25-604) (ligand) |  | > 90
